2 compounds from BindingDB's records for US8530494 can be followed below.

By UniProt entry, the sequences of proteins in these tests, tags left out.
UniProt P41145, whole entry: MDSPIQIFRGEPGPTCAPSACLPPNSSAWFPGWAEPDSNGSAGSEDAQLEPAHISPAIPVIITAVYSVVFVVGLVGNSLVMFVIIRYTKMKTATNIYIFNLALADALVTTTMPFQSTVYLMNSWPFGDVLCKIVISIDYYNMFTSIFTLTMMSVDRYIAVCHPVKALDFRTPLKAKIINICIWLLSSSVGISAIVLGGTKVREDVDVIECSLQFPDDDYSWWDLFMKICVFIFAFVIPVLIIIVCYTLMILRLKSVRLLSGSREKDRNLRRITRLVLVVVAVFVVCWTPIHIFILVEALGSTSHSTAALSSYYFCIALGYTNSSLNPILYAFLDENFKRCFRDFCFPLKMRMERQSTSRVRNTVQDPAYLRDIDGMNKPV
UniProt P41146, whole entry: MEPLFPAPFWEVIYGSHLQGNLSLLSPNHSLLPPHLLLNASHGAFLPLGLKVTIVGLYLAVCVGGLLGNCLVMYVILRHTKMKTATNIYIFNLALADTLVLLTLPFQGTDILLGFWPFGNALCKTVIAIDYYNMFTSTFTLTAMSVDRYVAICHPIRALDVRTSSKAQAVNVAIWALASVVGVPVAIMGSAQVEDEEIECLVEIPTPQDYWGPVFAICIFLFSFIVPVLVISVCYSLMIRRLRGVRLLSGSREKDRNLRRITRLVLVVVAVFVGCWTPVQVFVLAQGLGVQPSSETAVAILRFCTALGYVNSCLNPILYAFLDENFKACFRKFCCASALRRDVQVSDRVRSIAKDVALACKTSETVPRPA

SMILES strings stand for the structures.

Test [1] has as its target Kappa-type opioid receptor (Homo sapiens, UniProt P41145). Kind of test: ASSAY_NAME: Binding Assay DESCRIPTION: Binding assay of certain compounds of this invention to the opioid receptor was determine using radioligand binding assay (screening and dose-displacement).
For test [2], the target named is Nociceptin receptor (Homo sapiens, UniProt P41146). The description is as above.

With `COc1ccc2c3c1O[C@H]1[C@@]4(OC)CC[C@@]5(C[C@@H]4COCc4ccc(OC(F)(F)F)cc4)[C@@H](C2)N(C)CC[C@]315`, the affinity in test [1] corresponds to a Ki of 5.71 nM.
For `COc1ccc2c3c1O[C@H]1[C@@]4(OC)CC[C@@]5(C[C@@H]4COc4ccccc4)[C@@H](C2)N(C)CC[C@]315`, the Ki in test [2] came out at 2570 nM.
